We go through 1 molecule from patent publication US5278174A, “Sigma binding site agents” (priority 1991, dated 1994).

The chains behind the UniProt entries cited, without tags or fusion partners.
UniProt Q60492, whole entry: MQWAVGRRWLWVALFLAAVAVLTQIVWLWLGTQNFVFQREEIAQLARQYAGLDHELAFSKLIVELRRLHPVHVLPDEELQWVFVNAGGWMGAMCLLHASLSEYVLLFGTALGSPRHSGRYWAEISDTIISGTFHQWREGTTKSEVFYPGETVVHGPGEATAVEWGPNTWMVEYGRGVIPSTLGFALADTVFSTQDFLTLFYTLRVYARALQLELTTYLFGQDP

As usually defined, the IC50 is the point on the concentration scale where inhibition reaches its midpoint.

The experiment addresses T1, sigma sites (Cavia porcellus, UniProt Q60492).
T1 construct: Frozen whole guinea pig brains; tissue Pel-Freez, Rogers, Ariz; host or cells: whole guinea pig brain membranes
The experiment can be described thus: Sigma receptor binding assay, [3H](+)-3-PPP. The conditions noted are these: 4 nM [3H](+)-3-PPP; guinea pig whole brain; room temperature, 45 minutes; read-out: Receptor Potency Sigma PPP (IC50, nMol).

Consider `OC(CCCN1CCN(c2ncc(F)cn2)CC1)c1ccc(F)cc1` (stereo not shown) [BMY14802, reference compound], for which the IC50 was 319 nM.
